{
  "sequences": {"note": "The chains behind the UniProt entries cited, without tags or fusion partners. A line that says so, or that is headed by a name, gives the form on record, which may keep a tag or linker. Residues count along the entry.", "UniProt P35329, 22-351 with tags or gaps limits assumed": "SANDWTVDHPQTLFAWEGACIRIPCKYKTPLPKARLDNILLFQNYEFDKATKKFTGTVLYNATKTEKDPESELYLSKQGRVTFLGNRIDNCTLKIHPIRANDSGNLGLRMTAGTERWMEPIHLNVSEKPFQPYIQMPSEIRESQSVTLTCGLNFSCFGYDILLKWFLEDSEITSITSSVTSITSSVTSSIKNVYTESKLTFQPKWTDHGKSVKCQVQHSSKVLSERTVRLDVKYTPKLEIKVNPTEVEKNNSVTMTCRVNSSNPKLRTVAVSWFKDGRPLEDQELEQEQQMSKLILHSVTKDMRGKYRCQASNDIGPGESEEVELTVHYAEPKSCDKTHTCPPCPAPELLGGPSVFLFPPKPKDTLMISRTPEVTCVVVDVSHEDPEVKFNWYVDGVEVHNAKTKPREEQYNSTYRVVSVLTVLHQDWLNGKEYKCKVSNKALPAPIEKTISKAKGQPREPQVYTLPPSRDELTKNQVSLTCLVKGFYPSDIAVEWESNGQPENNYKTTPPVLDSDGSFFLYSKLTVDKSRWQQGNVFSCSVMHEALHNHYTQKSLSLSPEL", "UniProt P20273, 20-330 with tags or gaps limits assumed": "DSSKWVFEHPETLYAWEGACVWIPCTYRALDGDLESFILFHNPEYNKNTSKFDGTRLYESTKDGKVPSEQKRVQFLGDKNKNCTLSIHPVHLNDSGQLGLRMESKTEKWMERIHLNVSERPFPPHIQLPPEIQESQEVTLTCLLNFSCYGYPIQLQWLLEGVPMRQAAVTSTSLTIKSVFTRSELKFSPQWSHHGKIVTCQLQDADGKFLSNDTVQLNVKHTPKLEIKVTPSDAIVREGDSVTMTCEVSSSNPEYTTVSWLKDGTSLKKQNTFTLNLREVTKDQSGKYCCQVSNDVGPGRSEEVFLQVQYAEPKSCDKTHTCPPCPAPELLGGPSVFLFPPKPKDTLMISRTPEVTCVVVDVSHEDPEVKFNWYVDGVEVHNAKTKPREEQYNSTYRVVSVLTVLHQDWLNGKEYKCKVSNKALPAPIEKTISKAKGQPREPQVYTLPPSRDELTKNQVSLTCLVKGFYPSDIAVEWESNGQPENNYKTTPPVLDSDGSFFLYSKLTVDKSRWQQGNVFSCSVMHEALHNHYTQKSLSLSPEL"},
  "source": "patent US8357671B2",
  "about": "“High affinity Siglec ligands” (priority 2005, dated 2013)",
  "key": {"mouse CD22": {"target": "mouse CD22 (Mus musculus, UniProt P35329)", "assay": "ELISA inhibition assay: CD22-Fc chimera binding to immobilized NeuGc-LN", "method": "(§1) FIG. 1A-B illustrate that sialosides with derivation at position 9 that includes a neutral core and a hydrophobic moiety are potent inhibitors for CD22. Similar inhibitors can be made by derivation at position 5. […] FIG. 1B graphically illustrates competitive inhibition of selected sialoside inhibitors. Inhibitors were added with soluble CD22-Fc chimeras to block the chimera binding to immobilized NeuAcα2-6Galβ1-4GlcNAc (NeuAc-LN, human CD22, hCD22) or NeuGcα2,6Galβ1-4GlcNAc (NeuGc-LN, mouse CD22, mCD22). Data are the average +/−S.D. of triplicate determinations and are representative of two individual assays.\n(§2) ELISA inhibition assays: For inhibition assays, high binding 96 well microtiter plates (Corning Costar) were coated with neutravidin by incubation with 50 ul of 1 mg/ml Neutravidin (Pierce Biotechnology) in 50 mM Na bicarbonate pH 9.5 overnight at 4° C. The wells were then washed with PBS and blocked with PBS containing 5 mg/ml BSA for 1 hr at 37° C. Fifty microliters of a selected biotinylated sialoside (0.33 uM) was added to each well, and allowed to bind for 1 hr at room temperature. […]\n(§3) The CD22-Fc chimera employed was produced as described in Blixt et al. (J. Biol. Chem. 278: 31007-19 (2003)) and diluted to 0.1 mg/ml into HBSS (with 5 mg/ml BSA and 1 mM EDTA). […] The reaction was stopped with 50 ul of 2.5 M H2SO4 and the optical density at 450 nm (OD450) was measured."}, "human CD22": {"target": "human CD22 (Homo sapiens, UniProt P20273)", "assay": "ELISA inhibition assay: CD22-Fc chimera binding to immobilized NeuAc-LN", "method": "as §1, §2, §3"}},
  "data": [
    {"smiles": "COC1(C(=O)O)CC(O)C(NC(C)=O)C(C(O)C(O)CNC(=O)Cc2ccc(-c3ccccc3)cc2)O1", "note": "(stereo not shown)", "values": [
      {"measurement": "IC50", "setting": "mouse CD22; read-out: IC 50 value mCd22, inhibition of CD22-Fc binding to immobilized NeuGcα2,6LacNAc", "result": 220, "unit": "µM"},
      {"measurement": "rIP mCd22 (relative inhibitory potency)", "setting": "mouse CD22; relative to NeuGc-LN = 1", "result": 1},
      {"measurement": "IC50", "setting": "human CD22; read-out: IC 50 value hCd22, inhibition of CD22-Fc binding to immobilized NeuAcα2,6LacNAc", "result": 50, "unit": "µM"},
      {"measurement": "rIP hCd22 (relative inhibitory potency)", "setting": "human CD22; relative to NeuAc-LN = 1", "result": 4.4}
    ]}
  ]
}
